Protein sequences, listed by entry. Tags and fused reporters are not part of them. Residues count along the entry.
UniProt Q15116, 25-167 limits assumed: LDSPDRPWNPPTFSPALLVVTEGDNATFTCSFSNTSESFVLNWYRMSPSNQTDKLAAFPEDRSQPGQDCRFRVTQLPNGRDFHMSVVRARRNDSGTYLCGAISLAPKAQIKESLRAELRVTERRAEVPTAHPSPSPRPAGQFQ

According to patent US20230051872A1, “Multivalent D-Peptidic Compounds for Target Proteins” (Reflexion Pharmaceuticals, Inc., priority 2019, published 2023):

Molecular target: PD-1 (Homo sapiens, UniProt Q15116)
Assay: Surface plasmon resonance (SPR) binding affinity to PD-1
Design: purchased R&D Systems 1086-PD-050
Conditions: read-out: Binding Affinity KD; Table 2, variant D-peptidic domains, target protein PD-1

| Molecule | Kd [nM] |
| --- | --- |
| tidqwllknakedaiaelkkaGitsdlyfnwindassvssvnfhknyilkaha [Compound 977299] | 6480 |
| tidqwllknakedaiaelkkaGitsdlyfnwinvaGsvssvnyhknfilkaha [Compound 977297] | 2950 |
| tidqwllknakedaiaelkkaGitsdlyfnwinvaGsvssvnyhknyilkaha [Compound 977298] | 871 |
| tidqwllknakedaiaelkkaGitsdlyfnwinvassvssvnfhknyilkaha [Compound 977979] | 536 |

Molecular target: Human PD-1-Fc (R&D Systems cat #1086-PD-050), biotinylated (human) (UniProt Q15116)
Assay: SPR (Table 2)
Conditions: not given

| Molecule | Kd [nM] |
| --- | --- |
| 977297 (designed binder, D-protein) TIDQWLLKNAKEDAIAELKKAGITSDLYFNWINVAGSVSSVNYHKNFILKAHA | 2950 |
| 977298 (designed binder, D-protein) TIDQWLLKNAKEDAIAELKKAGITSDLYFNWINVAGSVSSVNYHKNYILKAHA | 871 |

Results, then the molecule that gave them:

| Kd [nM] | Molecule |
| --- | --- |
| 536 | 977979 (designed binder, D-protein) TIDQWLLKNAKEDAIAELKKAGITSDLYFNWINVASSVSSVNFHKNYILKAHA |
| 6480 | 977299 (designed binder, D-protein) TIDQWLLKNAKEDAIAELKKAGITSDLYFNWINDASSVSSVNFHKNYILKAHA |
